The values that follow come from paper doi:10.1101/116368v1 (biorxiv, 2017).

The target in this assay is T1, STARD1 (StAR), STARD1^S195E, residues 66-285 (Homo sapiens, UniProt P49675, S195E).
T1 sequence (P49675 66-285 S195E): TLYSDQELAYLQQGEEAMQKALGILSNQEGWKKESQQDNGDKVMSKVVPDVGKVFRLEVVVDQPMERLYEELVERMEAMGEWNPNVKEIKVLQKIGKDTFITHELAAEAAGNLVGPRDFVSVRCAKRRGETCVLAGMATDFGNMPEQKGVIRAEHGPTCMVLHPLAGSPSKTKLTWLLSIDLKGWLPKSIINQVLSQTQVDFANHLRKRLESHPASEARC
The assay can be described thus: NBD fluorescence titration, quadratic fit. The assay is classed as binding.

Compound `CC(CCC[C@@H](C)[C@H]1CC[C@H]2[C@@H]3CC=C4C[C@@H](O)CC[C@]4(C)[C@H]3CC[C@]12C)N(C)c1ccc([N+](=O)[O-])c2nonc12` (stereo partly shown) [25NC, 25-NBD-cholesterol] gave a dissociation constant (Kd) of 130 ± 23 nM.
